One may read the kcat as the maximal rate divided by the concentration of active sites. What is called kcat/Km is the turnover number divided by the Michaelis constant.

Substrate in this data set: OC[C@H]1O[C@H](O[C@@H]2[C@H](O)[C@@H](O)O[C@H](CO)[C@H]2O)[C@@H](O)[C@@H](O)[C@@H]1O
As to the kind of experiment: purified protein, by the assay type. To be noted: other: most active mannobiose substrate; enzyme Bt3991; pH 7.0; 37.0 °C.

B1: Bt3991 (Bacteroides thetaiotaomicron VPI-5482) (protein)
chain: MKLKTLLIGCFGGFIMLNSCTESPSVKDYSAYVNPFIGTGGHGHTFPGAVVPHGMIQPSPDTRIDGWDACSGYYYDDNTINGFSHTHVSGTGCCDYGDVLLMPTVGKPQYLTTDPESQKLAYASAFSHENETAEPGYYSVFLDTYQVKAEITATKRGAIHRYTFPESTESGFIIDLDYSLQRQTNYEMEIEVISDTEICGHKKTTYWAFDQYINFYAKFSKPFAYTLITDSVTMDNGKRLPVCKAVLHFNTKKDEEVLVKVGVSAVDIAGARKNVESEIPEWDFDKVRKDARTAWNNYLSKIDITTSDKEDKTIFYTALYHTAISPNLFTDADGRYLGMDLEVHQGDTINPLYTVFSLWDTFRALHPLMTIIDPNLNNQFINSLIRKHQEGGIYPMWDLASNYTGTMIGYHAVPVIVDAYMKGYRNFDAHEAYKASLRAAEYDTTGIKCPDLVLPHLMPKAKYYKNAIGYIPCDRENESVAKALEYAYDDWCISIFAEAMNDFENKAKYERFAKAYEFYFDKSTRFMRGLDSNGEWRTPFNPRASTHRSDDYCEGTAWQWTWFVPHDVEGLVKLMGGEDAFVEKLDSLFTVDSSLDGETTSADISGLIGQYAHGNEPSHHVIHLYNYVNRPWRTQELVDSVYRSQYANNVDGLSGNEDCGQMSAWYILNSMGFYQVCPGKPVYSIGRPAFDKAVINLPGEKTFSIVAKNNSKSNKYIESVLLNGKPLDTPFFGHQDIVAGGVMEIRMTDHPTQWGVRQ
With B1, the kcat was 4.67 s⁻¹ and the kcat/Km was determined as 517 M⁻¹ s⁻¹.

The record behind these values is PMC3942423 (Nature chemical biology, 2009).
